The assay deals with human c-Src (Homo sapiens, UniProt P12931). Description: biochemical.

Amino acid sequences for entries named in this document (tags omitted). A change or cut given only in a name is not applied to a line headed by its entry.
UniProt P12931: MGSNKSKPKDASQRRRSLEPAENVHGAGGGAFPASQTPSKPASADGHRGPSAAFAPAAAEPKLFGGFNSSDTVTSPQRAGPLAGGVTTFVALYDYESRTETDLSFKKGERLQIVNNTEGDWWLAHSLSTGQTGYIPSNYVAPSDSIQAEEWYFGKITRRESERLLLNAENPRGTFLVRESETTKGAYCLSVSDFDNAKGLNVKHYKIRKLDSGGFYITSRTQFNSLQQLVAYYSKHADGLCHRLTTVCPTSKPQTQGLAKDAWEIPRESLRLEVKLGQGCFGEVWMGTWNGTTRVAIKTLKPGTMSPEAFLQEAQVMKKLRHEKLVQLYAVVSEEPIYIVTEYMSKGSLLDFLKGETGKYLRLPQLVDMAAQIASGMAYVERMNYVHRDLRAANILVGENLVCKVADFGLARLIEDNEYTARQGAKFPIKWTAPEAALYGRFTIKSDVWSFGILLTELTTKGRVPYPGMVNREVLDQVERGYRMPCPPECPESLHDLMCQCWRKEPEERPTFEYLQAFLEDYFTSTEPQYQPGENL

The compound `O=c1cc(-c2ccc(O)c(O)c2)oc2ccc(O)cc12` [6,3´,4´-HOFL] came in with an IC50 of 12 µM.

`O=c1cc(-c2ccc(O)c(O)c2)oc2cc(O)ccc12` [7,3´,4´-HOFL] displayed a half-maximal inhibitory concentration (IC50) of 20.9 µM.
